Drawing on ChEMBL document CHEMBL3286181, “Pyridopyrimidinone inhibitors of HIV-1 RNase H” (Eur J Med Chem, 2014), this text covers inhibition for one compound.

Each structure is given as a SMILES string. Calls of active or inactive are those of the source. The calls are words filed in the database; no cut-off is given here.

This assay concerns the target Human immunodeficiency virus type 1 reverse transcriptase (Human immunodeficiency virus 1) (UniProt Q72547). The assay is described as follows: Inhibition of HIV1 reverse transcriptase DNA polymerase activity up to 10 uM.

Regarding `O=c1nc(NCC2CC2)c2cccnc2n1O`, the inhibition entry is “inactive”.
